A short description of experiment [1]: Inhibition Assay: The enzyme also can be detected based on the binding of specific ligands to the catalytic site which either immobilize the enzyme or label it with a probe such as dansyl, fluoracein, luciferase, green fluorescent protein or other reagent. The enzyme can be assayed by its hydration of EETs, its hydrolysis of an epoxide to give a colored product. The assays are normally carried out.

Test in experiment [2]: as above
The source holds these as a separate data set.

Several values for one entry are separate records, joined by “and”; a condition that tells them apart may be missing. Identical values can stand only once.

Turning to `O=C(Nc1ccc(OC(F)(F)F)cc1)NC1CCC(Oc2ccc(C(=O)O)cc2)CC1` (configuration not stated), the half-inhibitory concentration (IC50) was 5 nM and 1 nM in experiment [1]; 1 nM and 6 nM in experiment [2].

The term IC50 denotes the concentration at which inhibition is half-maximal. The low end stands for greater potency, the high end for weaker potency.
